Here are results for three molecules from the supplement of paper PMC11403291.

Sequences of proteins named here, by UniProt entry; tags and fusion partners are left off. A change or cut given only in a name is not applied to a line headed by its entry.
UniProt P06493, whole entry, looked up: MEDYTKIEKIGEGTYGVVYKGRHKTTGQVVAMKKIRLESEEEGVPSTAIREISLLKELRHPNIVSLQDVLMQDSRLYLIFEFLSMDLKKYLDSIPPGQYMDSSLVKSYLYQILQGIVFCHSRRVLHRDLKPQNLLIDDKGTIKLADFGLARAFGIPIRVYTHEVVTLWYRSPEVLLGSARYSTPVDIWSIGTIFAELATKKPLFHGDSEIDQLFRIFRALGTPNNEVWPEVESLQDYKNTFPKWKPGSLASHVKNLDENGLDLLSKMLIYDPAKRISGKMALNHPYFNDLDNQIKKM
UniProt Q9Y5S2: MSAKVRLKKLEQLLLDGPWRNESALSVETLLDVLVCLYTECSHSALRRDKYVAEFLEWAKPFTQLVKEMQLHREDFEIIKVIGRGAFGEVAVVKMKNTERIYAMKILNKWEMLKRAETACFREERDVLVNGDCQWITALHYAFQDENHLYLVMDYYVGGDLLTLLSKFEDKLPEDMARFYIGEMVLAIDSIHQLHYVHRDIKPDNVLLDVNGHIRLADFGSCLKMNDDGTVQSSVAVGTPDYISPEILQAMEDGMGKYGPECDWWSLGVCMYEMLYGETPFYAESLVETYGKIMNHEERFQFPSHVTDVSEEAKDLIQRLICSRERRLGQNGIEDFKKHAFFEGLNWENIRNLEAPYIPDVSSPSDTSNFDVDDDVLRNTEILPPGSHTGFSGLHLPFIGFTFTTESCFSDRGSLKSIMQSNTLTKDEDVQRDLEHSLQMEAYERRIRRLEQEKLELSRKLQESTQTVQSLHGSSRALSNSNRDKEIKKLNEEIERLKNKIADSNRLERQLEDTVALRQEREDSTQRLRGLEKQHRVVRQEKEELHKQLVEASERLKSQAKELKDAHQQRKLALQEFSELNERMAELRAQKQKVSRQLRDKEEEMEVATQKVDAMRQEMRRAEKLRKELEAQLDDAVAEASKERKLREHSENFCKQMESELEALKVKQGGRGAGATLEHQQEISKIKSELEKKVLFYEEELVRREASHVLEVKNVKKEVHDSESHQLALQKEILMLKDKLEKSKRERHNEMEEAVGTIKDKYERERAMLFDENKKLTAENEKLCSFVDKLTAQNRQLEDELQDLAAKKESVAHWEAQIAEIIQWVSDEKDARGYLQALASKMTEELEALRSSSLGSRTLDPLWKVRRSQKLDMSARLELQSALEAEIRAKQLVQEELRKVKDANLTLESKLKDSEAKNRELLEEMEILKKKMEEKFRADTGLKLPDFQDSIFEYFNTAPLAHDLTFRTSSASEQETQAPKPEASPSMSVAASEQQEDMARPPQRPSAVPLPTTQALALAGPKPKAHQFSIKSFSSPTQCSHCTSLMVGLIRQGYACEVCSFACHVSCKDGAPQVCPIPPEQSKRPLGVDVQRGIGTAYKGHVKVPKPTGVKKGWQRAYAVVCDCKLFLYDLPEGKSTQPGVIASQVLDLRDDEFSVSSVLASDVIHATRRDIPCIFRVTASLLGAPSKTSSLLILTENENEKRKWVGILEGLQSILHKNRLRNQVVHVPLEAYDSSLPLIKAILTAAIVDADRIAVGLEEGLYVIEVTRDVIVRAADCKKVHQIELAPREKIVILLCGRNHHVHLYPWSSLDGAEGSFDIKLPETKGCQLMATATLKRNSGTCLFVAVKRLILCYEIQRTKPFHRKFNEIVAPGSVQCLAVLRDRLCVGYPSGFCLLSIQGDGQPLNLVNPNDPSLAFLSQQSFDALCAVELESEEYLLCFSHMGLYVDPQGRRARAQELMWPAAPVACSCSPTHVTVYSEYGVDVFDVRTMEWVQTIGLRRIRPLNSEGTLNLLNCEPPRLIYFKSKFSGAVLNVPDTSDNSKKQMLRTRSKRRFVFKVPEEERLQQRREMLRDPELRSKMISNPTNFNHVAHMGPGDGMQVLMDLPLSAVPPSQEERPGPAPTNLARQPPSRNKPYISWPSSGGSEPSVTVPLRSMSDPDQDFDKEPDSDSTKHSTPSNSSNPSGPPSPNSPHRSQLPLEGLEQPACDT
UniProt P48730: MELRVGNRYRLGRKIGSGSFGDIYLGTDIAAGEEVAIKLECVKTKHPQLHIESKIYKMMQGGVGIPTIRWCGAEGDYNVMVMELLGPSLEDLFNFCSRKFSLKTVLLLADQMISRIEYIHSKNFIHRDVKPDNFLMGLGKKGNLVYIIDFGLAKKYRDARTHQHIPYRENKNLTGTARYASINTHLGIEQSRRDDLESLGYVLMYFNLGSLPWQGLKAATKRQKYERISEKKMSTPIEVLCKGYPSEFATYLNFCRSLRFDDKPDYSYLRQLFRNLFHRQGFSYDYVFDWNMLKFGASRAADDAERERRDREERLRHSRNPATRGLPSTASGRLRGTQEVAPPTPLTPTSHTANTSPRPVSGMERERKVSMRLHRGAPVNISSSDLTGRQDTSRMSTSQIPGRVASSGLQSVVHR
UniProt Q9NWZ3, whole entry: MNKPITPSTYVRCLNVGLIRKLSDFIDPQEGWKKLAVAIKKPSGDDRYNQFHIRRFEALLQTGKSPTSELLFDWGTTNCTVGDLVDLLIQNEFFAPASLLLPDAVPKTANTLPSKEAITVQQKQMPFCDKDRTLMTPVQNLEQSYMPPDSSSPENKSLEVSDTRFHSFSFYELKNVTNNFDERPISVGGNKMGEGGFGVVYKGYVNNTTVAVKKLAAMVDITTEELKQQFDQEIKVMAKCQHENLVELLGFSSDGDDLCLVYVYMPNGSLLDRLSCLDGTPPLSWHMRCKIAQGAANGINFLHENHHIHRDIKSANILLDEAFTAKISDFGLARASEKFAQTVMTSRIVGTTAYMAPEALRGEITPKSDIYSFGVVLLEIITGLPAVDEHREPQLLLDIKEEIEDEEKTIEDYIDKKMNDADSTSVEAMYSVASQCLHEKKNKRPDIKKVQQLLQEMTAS
UniProt P53671: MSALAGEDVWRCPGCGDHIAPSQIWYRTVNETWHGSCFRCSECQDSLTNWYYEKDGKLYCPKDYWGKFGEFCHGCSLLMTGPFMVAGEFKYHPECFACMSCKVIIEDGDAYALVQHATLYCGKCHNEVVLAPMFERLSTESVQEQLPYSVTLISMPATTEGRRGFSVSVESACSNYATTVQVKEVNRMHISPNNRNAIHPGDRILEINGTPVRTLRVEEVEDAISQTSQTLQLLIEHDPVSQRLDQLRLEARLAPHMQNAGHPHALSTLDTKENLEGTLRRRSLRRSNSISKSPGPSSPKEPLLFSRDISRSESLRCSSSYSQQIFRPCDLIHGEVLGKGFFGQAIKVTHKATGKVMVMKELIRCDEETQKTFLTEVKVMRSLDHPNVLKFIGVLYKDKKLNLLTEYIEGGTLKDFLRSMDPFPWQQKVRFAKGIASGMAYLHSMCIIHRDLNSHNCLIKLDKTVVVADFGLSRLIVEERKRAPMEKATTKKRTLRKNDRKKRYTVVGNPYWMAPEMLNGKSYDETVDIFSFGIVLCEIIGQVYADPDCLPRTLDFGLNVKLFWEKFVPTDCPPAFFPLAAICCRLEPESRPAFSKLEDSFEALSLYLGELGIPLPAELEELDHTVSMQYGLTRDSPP
UniProt Q8TDX7: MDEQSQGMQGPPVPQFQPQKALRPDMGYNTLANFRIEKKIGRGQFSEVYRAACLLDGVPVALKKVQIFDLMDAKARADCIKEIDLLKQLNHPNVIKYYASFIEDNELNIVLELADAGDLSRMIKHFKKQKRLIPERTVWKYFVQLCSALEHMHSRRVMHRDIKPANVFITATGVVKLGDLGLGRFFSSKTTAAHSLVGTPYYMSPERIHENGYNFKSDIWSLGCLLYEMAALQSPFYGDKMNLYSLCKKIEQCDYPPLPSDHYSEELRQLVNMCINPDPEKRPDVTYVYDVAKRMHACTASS
UniProt P04629: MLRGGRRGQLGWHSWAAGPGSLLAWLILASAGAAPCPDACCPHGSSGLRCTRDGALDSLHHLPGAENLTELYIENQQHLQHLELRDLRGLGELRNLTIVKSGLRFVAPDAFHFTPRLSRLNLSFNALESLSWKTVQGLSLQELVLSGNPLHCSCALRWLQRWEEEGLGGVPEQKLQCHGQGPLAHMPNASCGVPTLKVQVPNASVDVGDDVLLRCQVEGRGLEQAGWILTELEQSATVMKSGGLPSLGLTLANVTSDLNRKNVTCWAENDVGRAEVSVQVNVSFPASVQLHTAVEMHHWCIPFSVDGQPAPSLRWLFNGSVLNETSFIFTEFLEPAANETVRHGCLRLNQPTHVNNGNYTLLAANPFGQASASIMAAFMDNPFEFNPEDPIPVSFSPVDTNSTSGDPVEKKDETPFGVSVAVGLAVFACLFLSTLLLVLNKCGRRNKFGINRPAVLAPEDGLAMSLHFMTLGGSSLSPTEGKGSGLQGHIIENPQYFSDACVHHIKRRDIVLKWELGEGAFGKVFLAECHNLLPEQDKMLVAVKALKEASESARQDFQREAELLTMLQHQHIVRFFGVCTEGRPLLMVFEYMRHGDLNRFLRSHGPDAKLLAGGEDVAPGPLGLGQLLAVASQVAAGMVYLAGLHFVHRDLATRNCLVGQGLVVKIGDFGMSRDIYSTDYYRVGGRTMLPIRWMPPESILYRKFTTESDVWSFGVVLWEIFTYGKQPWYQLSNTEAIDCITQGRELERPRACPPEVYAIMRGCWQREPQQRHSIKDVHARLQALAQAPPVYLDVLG
UniProt Q9BVS4: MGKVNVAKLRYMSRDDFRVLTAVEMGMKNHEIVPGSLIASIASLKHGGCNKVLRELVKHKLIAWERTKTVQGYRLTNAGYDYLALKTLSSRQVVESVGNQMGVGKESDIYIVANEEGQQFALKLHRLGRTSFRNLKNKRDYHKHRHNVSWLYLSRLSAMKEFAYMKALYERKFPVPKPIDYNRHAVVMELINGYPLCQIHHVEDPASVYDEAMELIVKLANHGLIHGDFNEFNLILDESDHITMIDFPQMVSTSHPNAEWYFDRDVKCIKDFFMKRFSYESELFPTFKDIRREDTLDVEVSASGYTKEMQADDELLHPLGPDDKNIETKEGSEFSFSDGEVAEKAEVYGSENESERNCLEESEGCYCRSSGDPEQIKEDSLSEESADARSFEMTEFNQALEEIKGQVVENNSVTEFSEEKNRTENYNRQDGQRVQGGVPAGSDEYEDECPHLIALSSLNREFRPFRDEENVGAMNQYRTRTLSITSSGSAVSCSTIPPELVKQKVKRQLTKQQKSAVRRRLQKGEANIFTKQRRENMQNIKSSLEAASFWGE

SMILES strings stand for the structures.

Some targets named below: CDC2 (UniProt P06493); CDC42BPB (UniProt Q9Y5S2); CSNK1D (UniProt P48730); IRAK4 (UniProt Q9NWZ3); LIMK2 (UniProt P53671); NEK7 (UniProt Q8TDX7); NTRK1 (UniProt P04629); RIOK2 (UniProt Q9BVS4).
Holding throughout (assay): apparent dissociation constant pKd app (kinobead competition) (-log10(M)); higher = stronger binding
For a further experiment, the target named is T1, ACVR1B (UniProt P36896).
T1 sequence (whole entry): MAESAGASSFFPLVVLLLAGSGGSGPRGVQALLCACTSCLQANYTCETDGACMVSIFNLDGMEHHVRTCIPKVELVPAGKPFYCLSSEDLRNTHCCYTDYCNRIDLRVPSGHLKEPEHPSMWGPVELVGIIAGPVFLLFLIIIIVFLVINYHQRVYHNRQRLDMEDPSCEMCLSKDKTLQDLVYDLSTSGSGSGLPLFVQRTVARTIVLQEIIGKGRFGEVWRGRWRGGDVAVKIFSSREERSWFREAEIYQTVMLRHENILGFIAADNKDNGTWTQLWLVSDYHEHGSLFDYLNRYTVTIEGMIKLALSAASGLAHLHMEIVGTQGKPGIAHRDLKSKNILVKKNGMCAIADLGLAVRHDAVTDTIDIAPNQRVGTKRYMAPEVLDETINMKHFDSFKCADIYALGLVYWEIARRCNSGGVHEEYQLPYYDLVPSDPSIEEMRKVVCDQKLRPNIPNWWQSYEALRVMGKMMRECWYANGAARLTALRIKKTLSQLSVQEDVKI

The next experiment deals with T2, EPHB2 (UniProt P29323).
T2 sequence (whole entry): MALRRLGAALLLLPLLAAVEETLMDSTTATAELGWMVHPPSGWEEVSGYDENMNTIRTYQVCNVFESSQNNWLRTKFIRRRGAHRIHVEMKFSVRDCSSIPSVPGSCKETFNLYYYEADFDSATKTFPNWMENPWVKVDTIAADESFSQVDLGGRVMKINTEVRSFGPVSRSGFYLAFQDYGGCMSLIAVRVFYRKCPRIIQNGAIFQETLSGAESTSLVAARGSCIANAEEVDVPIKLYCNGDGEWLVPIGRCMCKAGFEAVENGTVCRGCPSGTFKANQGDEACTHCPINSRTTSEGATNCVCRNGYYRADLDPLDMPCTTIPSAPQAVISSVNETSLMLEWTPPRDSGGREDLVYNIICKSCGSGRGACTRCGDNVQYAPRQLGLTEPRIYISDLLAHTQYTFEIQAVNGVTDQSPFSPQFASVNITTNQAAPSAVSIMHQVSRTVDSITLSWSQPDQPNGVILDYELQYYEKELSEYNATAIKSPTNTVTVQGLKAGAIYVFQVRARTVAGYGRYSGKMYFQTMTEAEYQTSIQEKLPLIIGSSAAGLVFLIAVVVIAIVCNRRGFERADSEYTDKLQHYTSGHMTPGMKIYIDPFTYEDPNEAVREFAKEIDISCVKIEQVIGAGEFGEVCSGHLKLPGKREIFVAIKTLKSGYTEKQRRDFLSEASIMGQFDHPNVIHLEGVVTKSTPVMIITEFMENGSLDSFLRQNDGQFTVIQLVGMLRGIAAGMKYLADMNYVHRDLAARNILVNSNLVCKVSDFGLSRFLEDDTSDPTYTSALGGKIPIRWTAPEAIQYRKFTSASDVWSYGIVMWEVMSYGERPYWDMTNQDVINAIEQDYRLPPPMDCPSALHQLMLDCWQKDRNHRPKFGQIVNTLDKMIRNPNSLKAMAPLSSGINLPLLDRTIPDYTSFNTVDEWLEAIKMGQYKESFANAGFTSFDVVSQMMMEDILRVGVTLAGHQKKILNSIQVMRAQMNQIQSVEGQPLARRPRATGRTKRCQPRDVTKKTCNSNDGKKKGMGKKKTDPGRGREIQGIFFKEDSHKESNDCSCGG

The target in the next experiment is T3, SGK3 (UniProt Q96BR1).
T3 sequence (whole entry): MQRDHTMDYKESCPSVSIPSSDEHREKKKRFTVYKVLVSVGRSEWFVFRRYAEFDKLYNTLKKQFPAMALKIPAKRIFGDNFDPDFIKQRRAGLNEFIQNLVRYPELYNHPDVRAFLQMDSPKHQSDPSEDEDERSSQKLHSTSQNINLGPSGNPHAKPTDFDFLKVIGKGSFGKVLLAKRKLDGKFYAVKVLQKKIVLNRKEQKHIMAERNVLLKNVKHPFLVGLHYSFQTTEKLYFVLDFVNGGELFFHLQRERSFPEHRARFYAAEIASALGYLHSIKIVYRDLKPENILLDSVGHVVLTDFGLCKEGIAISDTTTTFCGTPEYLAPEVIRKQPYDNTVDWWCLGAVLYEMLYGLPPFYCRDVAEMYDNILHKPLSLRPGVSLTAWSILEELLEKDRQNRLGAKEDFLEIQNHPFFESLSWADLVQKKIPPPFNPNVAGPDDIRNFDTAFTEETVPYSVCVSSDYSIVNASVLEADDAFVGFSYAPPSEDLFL

As to `NC(=O)c1cccc2cn(-c3ccc([C@@H]4CCCNC4)cc3)nc12` [Niraparib], the “apparent dissociation constant pKd app (-log10)” value at ACVR1B is less than 4.7; on CDC2, less than 4.5; on CDC42BPB, less than 4.5; on CSNK1D, less than 4.6; at EPHB2 it was less than 4.6; at IRAK4 it was less than 4.6. Further, the “apparent dissociation constant pKd app (-log10)” value at LIMK2 is less than 4.6; at NEK7, less than 4.5; on NTRK1, less than 4.7; on RIOK2 it was less than 4.5; at SGK3, less than 4.5.
Take `Cn1ncnc1[C@H]1c2n[nH]c(=O)c3cc(F)cc(c23)N[C@@H]1c1ccc(F)cc1` [Talazoparib]: the “apparent dissociation constant pKd app (-log10)” value is less than 4.7 at ACVR1B; less than 4.5 on CDC2; less than 4.5 on CDC42BPB; less than 4.6 on CSNK1D; less than 4.6 at EPHB2; less than 4.6 at IRAK4. The “apparent dissociation constant pKd app (-log10)” value is less than 4.6 on LIMK2; less than 4.5 on NEK7; less than 4.7 at NTRK1; less than 4.5 at RIOK2; less than 4.5 on SGK3.
As for `O=C(c1cc(Cc2n[nH]c(=O)c3ccccc23)ccc1F)N1CCN(C(=O)C2CC2)CC1` [Olaparib], the “apparent dissociation constant pKd app (-log10)” value on ACVR1B is less than 4.7; at CDC2, less than 4.5; on CDC42BPB, less than 4.5; on CSNK1D it was less than 4.6; on EPHB2, less than 4.6; at IRAK4, less than 4.6. The “apparent dissociation constant pKd app (-log10)” value was less than 4.6 on LIMK2; less than 4.5 at NEK7; less than 4.7 on NTRK1; less than 4.5 at RIOK2; less than 4.5 at SGK3.
